In patent publication US7335186B2 (priority 1998, dated 2008):

Assay: Nasal opioid solutions used as medicament in the device

| Substance | effectiveness of nasal solution (30 mg per ml solutions) | effectiveness of nasal solution (solution of 50 μg per ml) |
| --- | --- | --- |
| Dimorphine | effective |  |
| Hydromorphine |  | effect |
